Data from patent EP4840464A1, “FAK INHIBITOR AND PAN-RAS INHIBITOR” (dated 2026).

What was measured:
[1] = test system: Capan1 cells; experiment: In vitro proliferation inhibition on RAS mutant cell line Capan1 (CCK-8); settings: 120 hours; for Percentage (%) of cell viability: Capan1, duplicate columns
[2] = test system: CT26 colorectal cancer subcutaneous xenograft model; experiment: In vivo antitumor efficacy in CT26 subcutaneous xenograft model
[3] = test system: Capan1 human pancreatic cancer subcutaneous xenograft model; experiment: In vivo anti-tumor efficacy in Capan1 subcutaneous xenograft model
[4] = compared with the blank control group

With `COc1cc(C(=O)NC2CCN(C)CC2)c(F)cc1Nc1ncc(C(F)(F)F)c(Oc2cccc3c2C(=O)N(C)C3)n1` the “Percentage (%) of cell viability” value ([1]; drug concentration 0.015242 µM, 0.015242 µM) was 110% and 126%, the “Percentage (%) of cell viability” value ([1]; drug concentration 1.234568 µM, 1.23457 µM) was 125% and 137% and the “Percentage (%) of cell viability” value ([1]; drug concentration 3.703704 µM, 3.7037 µM) was 128% and 134%. For the same compound, the IC50 ([1]; Capan1 cells, monotherapy) was 18.4 µM, the “Weight change rate (%)” value ([2]; (W12-W0) / W0*100%) was 8.3% and the “TGItv (%)” value ([2]; calculated based on data from day 12, vs. blank control group, RMC6236 10 mg/kg, anti-mPD-1 10 mg/kg, IN10018 25 mg/kg) was 40.4%. For the same compound, the anti-tumor effects [2, 4] was “significant anti-tumor effects”, the “Tumor volume (day 0)” value ([2]; day 0, at grouping, Mean ± SEM, RMC6236 10 mg/kg PO QD, anti-mPD-1 10 mg/kg IP BIW, IN10018 25 mg/kg PO QD) was 94.1±9.8 mm^3 and the “Weight (Day 0)” value ([2]; day 0, Mean ± SEM) was 21.6 ± 0.4 g. For the same compound, the “Weight (Day 12)” value ([2]; day 12, Mean ± SEM) was 23.4 ± 0.5 g, the “Tumor volume (day 12)” value ([2]; day 12, Mean ± SEM, RMC6236 10 mg/kg PO QD, anti-mPD-1 10 mg/kg IP BIW, IN10018 25 mg/kg PO QD) was 1212.1±228.8 mm^3 and the Survival ([2]; number of animals surviving on day 12 / number of animals surviving on day 0) was 6/6. For the same compound, the “Weight change rate (%)” value ([3]; (W20-W0) / W0*100%) was 7.5%, the anti-tumor effects [3, 4] was “significant anti-tumor effects” and the “Tumor volume (day 0)” value ([3]; day 0, at grouping, Mean ± SEM, IN10018 25 mg/kg PO QD, RMC6236 PO QD (10 or 3/6 mg/kg, see doubts)) was 258.0±34.4 mm^3. The “Weight (Day 0)” value ([3]; day 0, Mean ± SEM) was 21.7 ± 0.3 g, the “Tumor volume (day 20)” value ([3]; day 20, IN10018 25 mg/kg PO QD, RMC6236 PO QD (10 or 3/6 mg/kg, see doubts)) was 1945.7±174.8 mm^3 and the “Weight (Day 20)” value ([3]; day 20, Mean ± SEM) was 23.1 ± 0.7 g. The Survival ([3]; number of animals surviving on day 12 / number of animals surviving on day 0 (so in the source)) was 2/3.

Where “and” joins values, the source holds several entries; their conditions need not be identical. Equal values may be shown once.
